The values that follow come from PMC10865350, “Investigating Polypharmacology through Targeting Known Human Neutrophil Elastase Inhibitors to Proteinase 3” (Journal of Chemical Information and Modeling, 2024).

Format in all cases: biochemical
Assay [1] has as its system human neutrophil elastase (HNE). Kind of assay: HNE inhibition IC50 reported by Bayer HealthCare AG (literature values). The settings on record: 298.15 K; calculated from Bayer HealthCare AG IC50 values, Nussbaum et al. refs 9-11. From the text: To ensure we had the best models to represent the selected ligands and their interactions with the protein, we explored four different force field combinations for protein and ligands (Table 2) and compared the predicted values to published experimental data for HNE. […] The predicted free energies obtained with MSλD are provided in Table S3 together with the free energies derived from published experimental data.

For assay [2], the target named is T1, HNE (Homo sapiens, UniProt P08246).
T1 construct: purchased Athens Research and Technology
T1 sequence (P08246 30-267): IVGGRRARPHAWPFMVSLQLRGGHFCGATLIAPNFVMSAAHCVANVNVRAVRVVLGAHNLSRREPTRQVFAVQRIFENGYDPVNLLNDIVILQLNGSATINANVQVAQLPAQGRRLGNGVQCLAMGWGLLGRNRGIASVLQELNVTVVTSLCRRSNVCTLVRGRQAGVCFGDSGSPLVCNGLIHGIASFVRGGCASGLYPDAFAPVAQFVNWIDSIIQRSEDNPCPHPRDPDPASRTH
Put plainly: Enzymatic activity assay, HNE (fluorogenic substrate MeOSuc-AAPV-AMC). The settings on record: best enantiomer for compounds 5-8. The protocol: (§1) II.1 Experimental details
Chemicals. All chemicals and reagents were of analytical grade. Enzymes, PR3 and HNE, were purchased from Athens Research and Technology.
India) using published procedures.42 The substrate of HNE (MeOSuc-AAPV-AMC) was supplied by Santa Cruz Biotechnology.
Activity assay. The enzymatic assays for both PR3 and HNE were conducted according to the method published in (Budnjo et al., 2014) with minor modifications. Briefly, 0.5 nM of enzyme […]
same buffer containing the inhibitors at various concentrations for 30 min at RT. For PR3, the […]
(§2) 320, emission filter 420) at a final concentration of 5 μM while the HNE reaction was started by […]
at a final concentration of 5 μM. The fluorescent signal was read every 30 second for 30 min at 30 °C using a fluorescent plate reader (Tecan Spark). The enzymatic activity was measured from the initial linear portion of the slope (fluorescent signal/min) of the time-course curve of reaction progress. The activity data were produced in triplicates. Data were fitted using nonlinear regression analysis (GraphPad Prism v.9) to determine the IC50 values.

The target of assay [3] is T2, Proteinase 3 (PR3) (Homo sapiens, UniProt P24158).
T2 construct: purchased Athens Research and Technology
T2 sequence (P24158 28-256): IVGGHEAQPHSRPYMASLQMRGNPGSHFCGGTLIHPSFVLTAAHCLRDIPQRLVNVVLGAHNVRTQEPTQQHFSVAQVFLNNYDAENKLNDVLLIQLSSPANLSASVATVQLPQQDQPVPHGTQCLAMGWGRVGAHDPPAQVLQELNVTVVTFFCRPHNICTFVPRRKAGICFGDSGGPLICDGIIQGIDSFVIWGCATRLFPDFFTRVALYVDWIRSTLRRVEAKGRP
Put plainly: Enzymatic activity assay, PR3 (FRET peptide Abz-VADnVADYQ-EDDnp). To be noted: best enantiomer for compounds 5-8. On the procedure: as §1
Chemicals. All chemicals and reagents were of analytical grade. Enzymes, PR3 and HNE, were purchased from Athens Research and Technology. Compound 1 was purchased from Medchem Express while compounds 5-8 were prepared by Syngene International Limited (Bangalore, India) using published procedures.42 The substrate of HNE (MeOSuc-AAPV-AMC) was supplied by Santa Cruz Biotechnology.
Activity assay. The enzymatic assays for both PR3 and HNE were conducted according to the method published in (Budnjo et al., 2014) with minor modifications. Briefly, 0.5 nM of enzyme was incubated with buffer (50 mM HEPES pH 7.4, 750 mM NaCl, 0.5 % Igepal and 1 % DMSO) or same buffer containing the inhibitors at various concentrations for 30 min at RT. For PR3, the […]
as §2
at a final concentration of 5 μM. The fluorescent signal was read every 30 second for 30 min at 30 °C using a fluorescent plate reader (Tecan Spark). The enzymatic activity was measured from the initial linear portion of the slope (fluorescent signal/min) of the time-course curve of reaction progress. The activity data were produced in triplicates. […]
Table S11. Experimentally determined potency for the racemates (±) and the S-enantiomers.

Where two headings read alike, the source gives them in different places.

On to `CC1=C(C#N)[C@@H](c2ccc(C#N)cc2S(C)(=O)=O)N(C)C(=O)N1c1cccc(C(F)(F)F)c1` [Compound 1, reference compound], for which the “ΔGexpt HNE (ΔG = RTln(IC50))” value in assay [1] is on record as -13.8 kcal/mol. Moreover, the IC50 is 0.0005 ± 0.0001 µM in assay [2] (IC50 HNE, 0.5 nM enzyme, 5 μM substrate, triplicates); 0.000501 µM in assay [2] (pIC50 HNE); 0.101 ± 0.009 µM in assay [3] (0.5 nM enzyme, 5 μM FRET peptide, triplicates, read-out: IC50 PR3); 0.1 µM in assay [3] (read-out: pIC50 PR3 (converted)).
